scFv variants of Ab-14 (heavy chain) against a SARS-CoV-2 spike peptide

Source: Li et al. 2023 (doi:10.1038/s41467-023-39022-2), MIT Lincoln Laboratory and A-Alpha Bio; data file from the FLAb repository.

All variants were tested on one target, the spike HR2 peptide PDVDLGDISGINAS (SARS-CoV-2).

Ab-14 is the parent antibody, in scFv form: VH, then the linker GGGGSGGGGSGGGGS, then VL. The light chain is unchanged in all variants.
VH: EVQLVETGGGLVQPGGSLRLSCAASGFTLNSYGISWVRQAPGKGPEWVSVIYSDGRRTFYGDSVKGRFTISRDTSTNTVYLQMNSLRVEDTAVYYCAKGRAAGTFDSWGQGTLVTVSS
VL: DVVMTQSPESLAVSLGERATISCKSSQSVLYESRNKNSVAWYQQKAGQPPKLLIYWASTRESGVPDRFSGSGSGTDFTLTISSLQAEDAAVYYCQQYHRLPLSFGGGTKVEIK

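The starting antibody came from a phage panning campaign against this peptide. The variants were designed computationally from a first round of random CDR variants and then made and measured. Group labels follow the data file (Ctrl: baseline library sampled from a position-specific scoring matrix, with some repeated check sequences; Rand: our label for a block that the file lists under HC and that is probably the random mutants of the ten best first-round binders; GP: Gaussian process model; GPLM: also part of the Gaussian process libraries; HC: hill climbing; Gen: genetic algorithm; a sequence that several methods proposed may carry one label only). The assay is AlphaSeq: two haploid yeast populations carry antibody and antigen on their surface. Pairs that bind mate more often; barcode pairs of the diploids are counted by sequencing. Read counts were normalised to the haploid input and turned into Kd by a linear fit to BCL2-family pairs of known affinity, for each replicate. Mating was done six times.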

The whole VH of each variant is written out.
Variants here have at most six changes.
Values are log10 of the apparent Kd in nM; lower means stronger binding.
The mean shown is taken over the replicates in which the pair was detected.
"nd" means that the variant was in the library but no mating with the target was seen in that replicate; the authors take this as a sign of poor binding, and no number exists.
Order: sorted from the lowest average up, undetected variants last.

The variant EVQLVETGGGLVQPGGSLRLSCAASGFSLNEYGISWVRQAPGKGPEWVSVIYSDGQRTFYGDSVKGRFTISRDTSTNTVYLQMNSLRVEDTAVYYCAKGRTAGTFDSWGQGTLVTVSS [GP_Gen] gave -0.50, -0.45, -0.36, -0.04, 0.07, -0.16 (mean -0.24). The variant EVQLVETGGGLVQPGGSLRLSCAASGFWLNDYGISWVRQAPGKGPEWVSVIYADGRRTFYGDSVKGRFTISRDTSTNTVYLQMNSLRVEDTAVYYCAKGKAAGTFDSWGQGTLVTVSS [GP_HC] showed 0.08, 0.02, 0.18, 0.19, -0.27, 0.33 (mean 0.09). For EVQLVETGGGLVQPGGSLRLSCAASWFDLNSYGISWVRQAPGKGPEWVSVIYSDGRRTAYGDSVKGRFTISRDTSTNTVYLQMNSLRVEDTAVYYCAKGRAAGTFDSWGQGTLVTVSS [GP_Gen], the assay gave 0.52, 0.64, 0.61, -0.17, 0.16, 0.14 (mean 0.32). The variant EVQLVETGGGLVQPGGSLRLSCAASGFDLNSYGISWVRQAPGKGPEWVSVIYSDGRRTFYGDSVKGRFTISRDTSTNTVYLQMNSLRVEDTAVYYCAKGKQAGTFDSWGQGTLVTVSS [GPLM_Gen] showed 0.72, 0.40, 0.50, 0.38, 0.59, 0.48 (mean 0.51). The variant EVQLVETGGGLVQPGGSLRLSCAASGFTLNSYGISWVRQAPGKGPEWVSVIYSDGIRTGYGDSVKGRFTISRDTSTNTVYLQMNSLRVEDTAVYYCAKGKAAGTFDSWGQGTLVTVSS [Ctrl] gave 1.45, 1.60, 1.26, 1.03, 0.76, 1.37 (mean 1.25). The variant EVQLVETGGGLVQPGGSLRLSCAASGFTLNSYGISWVRQAPGKGPEWVSVIYSDGRRTAYGDSVKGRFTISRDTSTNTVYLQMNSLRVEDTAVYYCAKGRAAGCFDSWGQGTLVTVSS [Ctrl] showed nd, nd, 2.42, nd, nd, 2.42 (mean 2.42). The variant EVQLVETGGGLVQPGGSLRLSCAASGFTLNSYGISWVRQAPGKGPEWVSVIYSTGRRTFYGDSVKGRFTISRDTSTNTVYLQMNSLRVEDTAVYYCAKGRAAGTFDMWGQGTLVTVSS [Ctrl] showed nd, 2.17, nd, nd, 2.93, nd (mean 2.55).

The variant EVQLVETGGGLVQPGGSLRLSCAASGITLNSYGISWVRQAPGKGPEWVSVIYSDGRRTFYGDSVKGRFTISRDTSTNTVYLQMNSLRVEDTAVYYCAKGRAAGTFDSWGQGTLVTVSS [Ctrl] showed nd, nd, 2.97, nd, nd, 2.23 (mean 2.60). The variant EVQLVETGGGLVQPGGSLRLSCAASGFTLNSYGISWVRQAPGKGPEWVSVIYSDGRRTGYGDSVKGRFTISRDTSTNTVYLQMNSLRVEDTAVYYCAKGRAAGRFDSWGQGTLVTVSS [Ctrl] gave nd, nd, nd, nd, nd, nd. The variant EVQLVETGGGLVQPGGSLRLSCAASGSDLDSYGISWVRQAPGKGPEWVSVIYSDGHRTFYGDSVKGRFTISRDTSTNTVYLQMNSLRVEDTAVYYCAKGRAAGWFNSWGQGTLVTVSS [Rand] showed nd, nd, nd, nd, nd, nd. With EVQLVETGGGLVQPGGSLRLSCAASGFTLNDYGISWVRQAPGKGPEWVSVIYSDGRRTQYGDSVKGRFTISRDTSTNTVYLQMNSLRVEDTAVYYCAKGRAAGTFKSWGQGTLVTVSS [Ctrl] the result was nd, nd, nd, nd, nd, nd. With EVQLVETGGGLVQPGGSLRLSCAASGFTLASYGISWVRQAPGKGPEWVSVIYSDGRRTFYGDSVKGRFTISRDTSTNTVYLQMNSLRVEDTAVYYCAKGRFAGTFDNWGQGTLVTVSS [Ctrl] the result was nd, nd, nd, nd, nd, nd. For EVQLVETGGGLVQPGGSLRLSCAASGFTLDSYGISWVRQAPGKGPEWVSVIYSDGRRTFYGDSEKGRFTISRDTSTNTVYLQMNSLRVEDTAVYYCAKGPAAGTALSWGQGTLVTVSS [Rand], the assay gave nd, nd, nd, nd, nd, nd. With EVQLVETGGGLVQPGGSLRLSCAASGFTLNSYGISWVRQAPGKGPEWVSVIYSDGRRTYYGDSVKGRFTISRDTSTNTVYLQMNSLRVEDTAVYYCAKGRAAGTFVSWGQGTLVTVSS [Ctrl] the result was nd, nd, nd, nd, nd, nd.

The first 2 entries again:

VH,group,"log10 Kd, replicates","mean, log10 nM"
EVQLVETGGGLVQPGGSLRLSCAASGFSLNEYGISWVRQAPGKGPEWVSVIYSDGQRTFYGDSVKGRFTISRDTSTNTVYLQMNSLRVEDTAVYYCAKGRTAGTFDSWGQGTLVTVSS,GP_Gen,"-0.50, -0.45, -0.36, -0.04, 0.07, -0.16",-0.24
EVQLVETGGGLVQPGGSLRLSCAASGFWLNDYGISWVRQAPGKGPEWVSVIYADGRRTFYGDSVKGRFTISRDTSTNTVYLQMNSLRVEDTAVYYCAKGKAAGTFDSWGQGTLVTVSS,GP_HC,"0.08, 0.02, 0.18, 0.19, -0.27, 0.33",0.09

Of ten entries with the parent sequence, four were seen in most replicates (averages 0.34 to 2.37), three in one and three in none, so single entries are noisy.
The authors averaged sequences with at least three values out of six and counted those with two or fewer as poor binders.
A sequence measured in both rounds can read differently, since the two assays cover different ranges.
Empty control strains, which show no peptide, gave a signal in 1% of pairings with all heavy chain designs; the median was 2.08 and 95% of these signals were weaker than 0.84. No background was subtracted.